Laboratory results published in PubChem BioAssay AID588334 (Broad Institute, 2011).
Only a part is listed here, and it is no random draw. The source made the active and inactive calls.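 Rule for the calls: active = mean activation of at least 80% with every replicate also reaching 80%; inconclusive = mean reaches 80% but some replicate falls short; inactive = the rest.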

Experiment: MITF-driven TRPM1 luciferase induction in melanoma cells – cell-based, SK-MEL-5, single point, primary screen (AID 588334);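 note: 0% = neutral control wells and 100% = parthenolide positive control wells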
Details: SK-MEL-5 TRPM1-promoter luciferase, 24 h; at 12.5 µM; active compounds read high; % of positive control, neutral wells = 0
For `CN1CCCC(OC(=O)C(c2ccccc2)c2ccccc2)C1` (configuration not stated), the activation was inactive: 4.77%. In the case of `Clc1ccc(Cl)c(NC2=NCC(CBr)S2)c1` (configuration not stated), the activation is reported as inactive: -9.01%. In the case of `COc1ccccc1OP(=O)(Nc1ccc(C)cn1)Oc1ccccc1OC`, the activation is reported as inactive: -4.71%. With `CN(C(=O)Cc1ccc(Cl)c(Cl)c1)[C@H]1CCCC[C@H]1N1CCCC1` the activation was inactive: 7.49%. In the case of `Cc1ccc(N/C(=N/P(=O)(N2CCOCC2)N2CCOCC2)N2CCOCC2)cc1`, the activation is reported as inactive: -3.13%. For `NC(=O)c1cc([N+](=O)[O-])cc([N+](=O)[O-])c1N`, the activation was inactive: -7.02%. With `Oc1ccccc1CNc1ccccn1` the activation was inactive: 16.5%. In the case of `O=C(NC(Sc1ccncn1)C(Cl)(Cl)Cl)c1ccccc1` (configuration not stated), the activation is reported as inactive: -8.03%. With `Nc1cc(N)c2nonc2c1[N+](=O)[O-]` the activation was inactive: -7%. In the case of `CC(C)CC(=O)NC(Sc1ccc(Cl)cc1)C(Cl)(Cl)Cl` (configuration not stated), the activation is reported as inactive: -2.36%. In the case of `Cc1cc(SC(NC(=O)c2ccc(F)cc2)C(Cl)(Cl)Cl)ncn1` (configuration not stated), the activation is reported as inactive: 8.63%. In the case of `CCOP(=O)(Nc1ccccc1)OCC`, the activation is reported as inactive: -4.7%. With `CN(C(=O)Cc1ccc(Cl)c(Cl)c1)[C@H]1CCCC[C@@H]1N1CCCC1` the activation was inactive: 4.03%. For `CC(=O)Nc1ccc([As](=O)(O)O)cc1`, the activation was inactive: 2.08%. In the case of `O=C(O)c1ccccc1[As](=O)(O)O`, the activation is reported as inactive: 0.207%. For `CCCC1OP(N)(=O)OCC1CC` (configuration not stated), the activation was inactive: 4.5%. In the case of `Nc1cccc2ccc([As](=O)(O)O)cc12`, the activation is reported as inactive: -13.5%. With `CCN(N=Nc1nonc1N)c1nonc1N` the activation was inactive: 7.32%. With `O=C(Nc1cc([As](=O)(O)O)ccc1O)c1ccccc1` the activation was inactive: 1.8%. With `O=P1(N(CCCl)CCCl)OCCCS1` (configuration not stated) the activation was inactive: 5.31%. In the case of `O=C(O)CNc1ccc([As](=O)(O)O)cc1`, the activation is reported as inactive: -0.782%. For `COC(=O)C1(C)COP(=O)(Nc2ccccc2)OC1` (configuration not stated), the activation was inactive: 0.834%. With `O=[N+]([O-])c1cccc(NC2=NCC(CBr)S2)c1` (configuration not stated) the activation was inactive: -0.64%. For `O=[N+]([O-])c1ncn(CCn2ncnc2[N+](=O)[O-])n1`, the activation was inactive: 2.23%. For `CC(C)(C)C(=O)NC(Sc1ccncn1)C(Cl)(Cl)Cl` (configuration not stated), the activation was inactive: 5.49%. For `Cc1ccc(NP(=O)(Oc2ccccc2)Oc2ccccc2)nc1`, the activation was inactive: 4.54%. In the case of `CCc1nc2c(n1)c1c(non1O)c1c2no[n+]1[O-]`, the activation is reported as inactive: -60.1%. In the case of `O=[N+]([O-])c1cc([N+](=O)[O-])c(CCNc2ccccc2)c([N+](=O)[O-])c1`, the activation is reported as inactive: -38%. With `O=[N+]([O-])c1cccc2n[nH]nc12` the activation was inactive: 9.2%. With `CC(=O)N1C2C3N(C(C)=O)C1C1N(C(C)=O)C(C(N1C(C)=O)N3C(C)=O)N2C(C)=O` the activation was inactive: -5.35%. In the case of `COc1ccc(C2=NCC(CBr)S2)cc1` (configuration not stated), the activation is reported as inactive: 16.8%. For `CC1CCN(C(=O)Oc2c(Cl)cc(Cl)c3cccnc23)CC1`, the activation was inactive: 4.03%. With `CC(C)=N/N=C(\N)N[N+](=O)[O-]` the activation was inactive: -5.45%. For `CN(C)C(=O)OCCc1n(C)cc[n+]1C`, the activation was inactive: 11%. In the case of `CCN(/C(=N/P(=O)(N1CCOCC1)N1CCOCC1)N1CCOCC1)c1ccc(OC)cc1`, the activation is reported as inactive: 5.64%. With `Nc1ccc([As](=O)(O)c2ccc(N)cc2)cc1` the activation was inactive: -11.8%. For `CC(C)C(=O)NC(Sc1ccccc1)C(Cl)(Cl)Cl` (configuration not stated), the activation was inactive: -2.77%. For `O=P(Nc1nccs1)(c1ccccc1)c1ccccc1`, the activation was inactive: -2.5%. With `O=P(Nc1nc2ccccc2s1)(c1ccccc1)c1ccccc1` the activation was inactive: 11.9%. For `C[C@H]1OP(=O)(Oc2ccccc2)[C@H](O)[C@H](O)[C@H]1N=[N+]=[N-]` (some centres not stated), the activation was inactive: -4.43%. In the case of `O=P(Nc1ccccn1)(c1ccc(Br)cc1)c1ccc(Br)cc1`, the activation is reported as inactive: 2.88%. With `COc1ccc(N)c([N+](=O)[O-])c1[N+](=O)[O-]` the activation was inactive: 10.6%. In the case of `C(Cc1nn[nH]n1)Cc1nn[nH]n1`, the activation is reported as inactive: 1.58%. With `Nc1ccc([As](=O)(O)c2ccc([N+](=O)[O-])cc2)cc1` the activation was inactive: 2.65%. In the case of `O=[As](O)(c1ccccc1)c1ccc(O)cc1`, the activation is reported as inactive: 1.43%. In the case of `CC(=O)NC(SC(=S)N(C)C)C(Cl)(Cl)Cl` (configuration not stated), the activation is reported as inactive: -36%. With `O=[N+]([O-])c1ncn(CCn2cnc([N+](=O)[O-])n2)n1` the activation was inactive: -7.55%. For `O=P1(N(CCCl)CCCl)OCCC2CCCCN21` (configuration not stated), the activation was inactive: -9.59%. With `c1ccc(-c2nn[nH]n2)c(-c2nn[nH]n2)c1` the activation was inactive: 1.51%. In the case of `CCNC(=S)/N=C(\N)N[N+](=O)[O-]`, the activation is reported as inactive: 1.6%. With `O=C(NC1CCS(=O)(=O)C1)NP(=S)(Oc1ccccc1)Oc1ccccc1` (configuration not stated) the activation was inactive: -3.79%. For `CC(NC(=O)COC(=O)C(O)(c1ccccc1)c1ccccc1)c1ccccc1` (configuration not stated), the activation was inactive: -2.9%. With `O=c1c2cc([N+](=O)[O-])ccc2[nH]c2c([N+](=O)[O-])cc([N+](=O)[O-])cc12` the activation was inactive: -72.3%. In the case of `O=C(OC1CN2CCC1CC2)c1ccccc1` (configuration not stated), the activation is reported as inactive: 1.34%. In the case of `CCC(=O)N1C2C3N(C(=O)CC)C1C1N(C(=O)CC)C(C(N1C(=O)CC)N3C(=O)CC)N2C(=O)CC`, the activation is reported as inactive: 8.73%. With `COC(=O)c1cc2c(s1)N=C(c1ccccc1)N(C)P2(=O)N1CCOCC1` (configuration not stated) the activation was inactive: 4.26%. In the case of `CC(=O)NC(SC(=S)N(CC(C)C)CC(C)C)C(Cl)(Cl)Cl` (configuration not stated), the activation is reported as inactive: -8.17%. For `Cc1ccc(OP(=O)(Nc2ccccn2)Oc2ccc(C)cc2)cc1`, the activation was inactive: -10.4%. For `CC(C)(C)C(=O)NC(Sc1ccccc1)C(Cl)(Cl)Cl` (configuration not stated), the activation was inactive: 7.65%. In the case of `CCc1cc(O)c([N+](=O)[O-])c(C)c1[N+](=O)[O-]`, the activation is reported as inactive: -0.579%. For `CCOc1ccc(C2=NCC(CBr)S2)cc1` (configuration not stated), the activation was inactive: 2.19%. With `CC(=O)Nc1ccc([As](=O)(O)O)c(O)c1` the activation was inactive: 5.17%. In the case of `CC(=O)Nc1ccc(Oc2c([N+](=O)[O-])cc([N+](=O)[O-])cc2[N+](=O)[O-])cc1`, the activation is reported as inactive: -1.96%. For `Cc1ccccc1CN(C)C(=O)COC(=O)C(O)(c1ccccc1)c1ccccc1`, the activation was inactive: 9.89%. In the case of `C[C@H]1OP(=O)(Oc2ccccc2)C[C@@H]2O[C@@H]21` (some centres not stated), the activation is reported as inactive: 0.236%. In the case of `C[C@@H]1C=CCP(=O)(Oc2ccccc2)O1` (some centres not stated), the activation is reported as inactive: 1.36%. For `CC(=O)c1ccc(N2CC2c2ccncc2)cc1` (configuration not stated), the activation was inactive: -12.7%. In the case of `N#C/C(=C\c1ccc(N(CCBr)CCBr)cc1)C(N)=O`, the activation is reported as inactive: -0.356%. For `COC(=O)C1(C)COP(=O)(NCc2ccccc2)OC1` (configuration not stated), the activation was inactive: 4.5%. In the case of `Cc1cccc(OCC(=O)OC2CN3CCC2CC3)c1` (configuration not stated), the activation is reported as inactive: -3.91%. For `O=[As](O)(c1cccc(O)c1)c1cccc(O)c1`, the activation was inactive: -3.28%. In the case of `O=[As](O)(O)c1cccnc1`, the activation is reported as inactive: -10.4%. For `COc1cc(C(=O)NCC2(N3CCOCC3)CCCCC2)cc(Cl)c1OC(C)C`, the activation was inactive: -9.97%. In the case of `CS(=O)(=O)c1ccc(Cl)c(NC(=O)COC(=O)C(O)(c2ccccc2)c2ccccc2)c1`, the activation is reported as inactive: -2.9%. In the case of `COc1cc(C2NCCC3(OCCO3)C2(C)C)cc(OC)c1OC` (configuration not stated), the activation is reported as inactive: 0.514%. With `CCOP(=O)(Nc1cccc2ccccc12)OCC` the activation was inactive: -5.12%. With `Cc1ccc(NCCc2c([N+](=O)[O-])cc([N+](=O)[O-])cc2[N+](=O)[O-])cc1` the activation was inactive: -7.04%. In the case of `Nc1cccc2c([As](=O)(O)O)cccc12`, the activation is reported as inactive: 13.1%. In the case of `CCCOP(=S)(Nc1nc(N)cc(=O)[nH]1)OCCC`, the activation is reported as inactive: -5.7%. For `Nc1ccccc1[As](=O)(O)c1ccccc1`, the activation was inactive: -8.7%. In the case of `O=C(O)COc1ccc([As](=O)(O)O)cc1[N+](=O)[O-]`, the activation is reported as inactive: -1.08%. With `CCOP1(=S)c2c(C)nn(CCC#N)c2N=C(c2ccccc2F)N1C` (configuration not stated) the activation was inactive: -0.599%. In the case of `O=P(Nc1nccs1)(Oc1ccccc1)Oc1ccccc1`, the activation is reported as inactive: -0.54%. With `O=P(Nc1nccs1)(c1ccccc1)c1nc2ccccc2s1` (configuration not stated) the activation was inactive: -11.2%. In the case of `CS(=O)(=O)c1cc([N+](=O)[O-])c2no[n+]([O-])c2c1`, the activation is reported as inactive: -11.8%. With `N#CCCN(C(=O)COC(=O)C(O)(c1ccccc1)c1ccccc1)c1ccc(F)cc1` the activation was inactive: -2.27%. For `CCOP1(=S)c2c(C)nn(CCC#N)c2N=C(c2ccc(F)cc2)N1C` (configuration not stated), the activation was inactive: -9.65%. In the case of `CN(C(=O)Cc1ccccc1)[C@@H]1CC[C@]2(CCCO2)C[C@H]1N1CCCC1`, the activation is reported as inactive: 14.3%. For `O=[N+]([O-])c1ccc2c(c1)nnn2O`, the activation was inactive: -5.25%. For `CN(C(=O)Cc1ccc(Cl)c(Cl)c1)[C@H]1CC[C@@]2(CCCO2)C[C@@H]1N1CCCC1`, the activation was inactive: 9.08%. In the case of `NC(=O)Nc1ccc([As](=O)(O)O)cc1`, the activation is reported as inactive: 1.5%. With `CN(C)C1(CNC(=O)c2ccc(S(C)(=O)=O)cc2)CCCCC1` the activation was inactive: -8.74%. For `CCCC1OP(=O)(Nc2ccccc2)OCC1CC` (configuration not stated), the activation was inactive: 10.6%. With `Cc1nn(-c2ccccc2)c2c1P(=O)(N1CCOCC1)N(C)C(c1ccccc1)=N2` (configuration not stated) the activation was inactive: 0.216%. With `CC1CCC(C(C)C)C(OP(=O)(Nc2ccccn2)c2ccccc2)C1` (configuration not stated) the activation was inactive: -0.875%. In the case of `Cc1ccc(C(=O)OC2CN3CCC2CC3)cc1` (configuration not stated), the activation is reported as inactive: -1.35%. With `Nc1cccc([As](=O)(O)c2ccccc2)c1` the activation was inactive: 7.63%. In the case of `Cc1ccc(OCC(=O)OC2CN3CCC2CC3)cc1` (configuration not stated), the activation is reported as inactive: 5.78%. For `O=[As](O)(c1cccs1)c1cccs1`, the activation was inactive: -8.81%. In the case of `O=P1(Nc2ccc(Br)cn2)COc2ccccc2OC1`, the activation is reported as inactive: -11.2%. For `CC(C)(C)C(=O)NC(Sc1ncccn1)C(Cl)(Cl)Cl` (configuration not stated), the activation was inactive: -25.8%. With `CCOP(=O)(NC(=NC(C)c1ccccc1)NC(C)c1ccccc1)OCC` (configuration not stated) the activation was inactive: -3.11%.
